# Antibody variant affinities, Ab-14 light chain, assay B

Source: Li et al. 2023 (doi:10.1038/s41467-023-39022-2), MIT Lincoln Laboratory and A-Alpha Bio; data file from the FLAb repository.

Target: peptide PDVDLGDISGINAS, taken from heptad repeat 2 (HR2) of SARS-CoV-2 spike.

The variants keep the heavy chain, the linker and the frameworks of Ab-14 (scFv order VH, a (GGGGS)3 linker, VL).
VH: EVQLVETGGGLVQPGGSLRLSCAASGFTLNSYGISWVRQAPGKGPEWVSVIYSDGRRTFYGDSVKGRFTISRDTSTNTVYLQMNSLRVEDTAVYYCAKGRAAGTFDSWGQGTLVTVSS
VL: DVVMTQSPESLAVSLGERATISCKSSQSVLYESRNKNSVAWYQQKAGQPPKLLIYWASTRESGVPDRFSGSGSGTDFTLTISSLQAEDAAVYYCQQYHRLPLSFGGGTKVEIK

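The starting antibody came from a phage panning campaign against this peptide. These sequences belong to a second round, designed from the earlier measurements on random variants of the parent. Their group label is 14L_GP_HC (GP: Gaussian process model; HC: hill climbing; a sequence that several methods proposed may carry one label only). AlphaSeq pools MATa yeast showing the antibodies with MATalpha yeast showing the peptide. The frequency of each diploid, read from paired DNA barcodes, reflects how well the two displayed proteins bind. Read counts were normalised to the haploid input and turned into Kd by a linear fit to BCL2-family pairs of known affinity, for each replicate. The assay was run in six technical replicates.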

Each variant is given by its three light chain CDRs, as the data file delimits them; those of the parent are KSSQSVLYESRNKNSVA, WASTRES, QQYHRLPLS.
Affinities are written as log10 Kd with Kd in nM; a lower number is a better binder.
An entry "nd" has no value in the source: the pair was not observed among the diploids in that replicate. This suggests poor binding but is not conclusive.
The authors averaged sequences with at least three values out of six and counted those with two or fewer as poor binders.
The parent sequence was in this pool as ten entries: three were never detected, three once, and four in most replicates, with averages from 0.34 to 2.37.
Background: pairings of all light chain designs with three empty control strains gave a value in 4% of cases (median 2.64, 5th percentile 1.59). Values in that range, when seen in few replicates, are hard to tell from nonspecific mating. The control count says in how many pairings with the empty strains this scFv gave a signal.
Values of this round are not directly comparable with the first-round values of the same sequences.

Variant KLNQSTLYESRNQNSVA | NASTRES | QQYHRLPLS gave -0.18, -0.21, -0.19, -0.39, -0.38, -0.24 (controls 0 of 18).
Variant KSGQGVLYESRNKNSVA | GVSTRES | QQYHRLPLS gave 0.05, -0.24, 0.00, -0.14, -0.19, 0.07 (controls 3 of 18).
Variant KVFISVLLESRNKNSVA | EASTRES | QQYHRLPLS gave 1.11, 0.45, 0.61, 1.13, 0.95, 2.08 (controls 0 of 18).
Variant KLQQQGLYESRNKNSVA | SASTREE | QQYHRLPLS gave 0.03, -0.02, -0.06, -0.18, -0.08, 0.05 (controls 4 of 18).
Variant KISQSWLYESRNKNSVA | GASLRES | QQYHRLPLS gave 0.03, -0.25, -0.09, -0.28, -0.34, -0.12 (controls 0 of 18).
Variant KFSGSVLLESRTKNSVA | NASTRES | QQYHRLPLS gave 0.05, -0.08, -0.21, -0.30, -0.33, -0.10 (controls 1 of 18).
Variant KMSWSVLFESRNKNSVA | DASTRES | QQYHRLPLS gave -0.08, -0.12, -0.38, -0.29, -0.23, -0.12 (controls 1 of 18).
Variant KESQSVPFEWRNKNSVA | DASTREQ | QQYHRLPLS gave -0.14, -0.14, -0.32, -0.24, -0.28, -0.19 (controls 2 of 18).
Variant KVSQSDLMESRNKNSVA | EASTRQS | QQYHRLPLS gave 0.15, -0.06, -0.09, -0.13, -0.17, -0.06 (controls 1 of 18).
Variant KSSQSVLGEQRNKNSVA | DSSTRES | QQYHRLPLS gave 0.28, 0.01, -0.03, -0.05, -0.12, 0.14 (controls 2 of 18).
Variant HSSQSVPYESRNKNSVA | DASTRES | QQYHRLPLS gave 0.45, 0.32, 0.25, 0.44, 0.39, 0.19 (controls 1 of 18).
Variant KESWSVLFESRNKNSVA | DASTRSS | QQYHRLPLS gave 0.66, -0.21, 0.24, 0.56, 0.17, 0.53 (controls 1 of 18).
Variant KVSQSVLYESRMKNSVA | DASTRES | QQYHRLPLE gave 0.90, 0.06, 0.39, 1.00, 0.23, 0.74 (controls 0 of 18).
Variant KSSISYLYGSRNTNSVA | EASTRES | QQYHRLPLS gave 0.18, 0.88, 0.90, 0.24, 0.29, 1.06 (controls 0 of 18).
Variant KAEQSWLYESRNKNSVA | GASTRES | QQYHRLPLI gave 0.04, 0.15, 0.08, 0.01, -0.04, 0.02 (controls 0 of 18).
Variant KLMQSTLYESRNKNSVA | NASTRLS | QQYHRLPLS gave 0.67, 0.56, 0.43, 0.44, 0.45, 0.48 (controls 0 of 18).
Variant KSSQSFLYESRNQNSVA | NASTRES | QQYHRLPLS gave 0.03, 0.15, -0.37, -0.19, -0.10, 0.03 (controls 2 of 18).
Variant KESQSELYESRNKNSVA | GASTRES | QQYHRLPLS gave -0.15, -0.32, -0.15, -0.45, -0.50, -0.13 (controls 0 of 18).
Variant KVRQSTLYESRNKNSVA | WASQRES | QQYHRLPLS gave 0.83, 0.43, 0.58, 0.57, 0.81, 1.13 (controls 2 of 18).
Variant KTPQGDLYESRNKNSVA | GASVRES | QQYHRLPLS gave -0.19, -0.19, -0.08, -0.30, -0.32, -0.27 (controls 1 of 18).
Variant KSSQSDLYESRNKNSVA | GASTREV | QQYHRLPLS gave 0.06, 0.10, 0.07, 0.09, 0.15, -0.01 (controls 2 of 18).
Variant KAQQSVLYESRNKNNVA | HASTRED | QQYHRLPLS gave 0.06, 0.19, 0.23, 0.45, 0.34, 0.40 (controls 0 of 18).
Variant KAVQSELYESRNKNSVA | GASTRES | QQYHRLPLI gave 0.34, 0.62, 0.16, 0.15, 0.40, 0.62 (controls 2 of 18).
Variant KLSQSTLYDSQNKNSVA | WASTRLS | QQYKRLPLS gave 0.80, 0.99, 1.03, 0.81, 1.48, 1.46 (controls 2 of 18).
Variant KSQQSWLYESRNKNSVA | GASAREV | QQYHRLPLS gave 0.25, 0.09, 0.01, -0.22, 0.19, 0.20 (controls 0 of 18).
Variant KLRQSTGYESRNKNSVA | GASTRES | QQYHRLPLS gave -0.01, -0.10, -0.33, -0.22, -0.09, -0.06 (controls 0 of 18).
Variant KSPWSVLYESRNKNSVA | HASTRED | QQYHRLPLS gave 0.58, 0.56, -0.01, 0.37, -0.24, 1.27 (controls 0 of 18).
Variant KQSQAFLQESRNKNSVA | DANTRES | QQYHRLPLS gave 0.45, 0.46, -0.03, 0.20, 0.29, 0.37 (controls 0 of 18).
Variant KSSISWLYESENKNSVA | EASQRES | QQYHRLPLS gave 0.19, 0.23, 0.40, 0.25, 0.27, 0.18 (controls 0 of 18).
Variant KLQQSQLYESRNFNSVA | HASTRED | QQYHRLPLS gave 0.11, -0.09, -0.04, -0.35, 0.02, 0.01 (controls 1 of 18).
Variant RMSQSVLYESRNKNSVA | DASTRES | QQYHRLPLS gave -0.43, -0.43, -0.38, -0.74, -0.45, -0.04 (controls 0 of 18).
Variant KSSQSWLYESGNKNSVA | HASTRED | QQYHRLPLS gave -0.07, -0.06, 0.08, -0.10, -0.17, 0.03 (controls 1 of 18).
Variant KSSISYSAESRNKNSVA | EASTRES | QQYHRLPLS gave 0.74, 0.80, 0.63, 0.25, 0.35, 0.71 (controls 0 of 18).
Variant KSSISYLYESRNKNSVA | NASTRES | QQYHRLPLS gave 0.41, 0.22, 0.26, 0.16, -0.19, 0.42 (controls 0 of 18).
Variant KVSQSVLFEPRNKNSVA | DASTRES | QQYHRLPLS gave -0.03, -0.12, 0.21, -0.38, 0.06, -0.16 (controls 0 of 18).
Variant KSLQSVLYESRNKNSVA | EASTRED | QQYHQLPLS gave 0.13, 0.49, 0.52, 0.22, -0.13, 0.40 (controls 1 of 18).
Variant KFSQSVLYESRTWNSVA | NASTRES | QQYHRLPLS gave 0.51, 0.73, 0.54, 0.63, 0.64, 0.52 (controls 2 of 18).
Variant KVSQSQLYESRNKNSVA | GASTRES | QQYHRLDLS gave nd, nd, nd, nd, nd, nd (controls 0 of 18).

The first 3 entries again:

| CDR-L1 | CDR-L2 | CDR-L3 | replicates, log10 nM | empty controls |
|---|---|---|---|---|
| KLNQSTLYESRNQNSVA | NASTRES | QQYHRLPLS | -0.18, -0.21, -0.19, -0.39, -0.38, -0.24 | 0 of 18 |
| KSGQGVLYESRNKNSVA | GVSTRES | QQYHRLPLS | 0.05, -0.24, 0.00, -0.14, -0.19, 0.07 | 3 of 18 |
| KVFISVLLESRNKNSVA | EASTRES | QQYHRLPLS | 1.11, 0.45, 0.61, 1.13, 0.95, 2.08 | 0 of 18 |